ChEMBL document CHEMBL5154787 (J Med Chem, 2022)

Chains of the proteins cited; added tags and fusions are not shown. Lines headed by an entry give the natural chain unless they say otherwise; changes in a name come on top.
UniProt Q2M2I8: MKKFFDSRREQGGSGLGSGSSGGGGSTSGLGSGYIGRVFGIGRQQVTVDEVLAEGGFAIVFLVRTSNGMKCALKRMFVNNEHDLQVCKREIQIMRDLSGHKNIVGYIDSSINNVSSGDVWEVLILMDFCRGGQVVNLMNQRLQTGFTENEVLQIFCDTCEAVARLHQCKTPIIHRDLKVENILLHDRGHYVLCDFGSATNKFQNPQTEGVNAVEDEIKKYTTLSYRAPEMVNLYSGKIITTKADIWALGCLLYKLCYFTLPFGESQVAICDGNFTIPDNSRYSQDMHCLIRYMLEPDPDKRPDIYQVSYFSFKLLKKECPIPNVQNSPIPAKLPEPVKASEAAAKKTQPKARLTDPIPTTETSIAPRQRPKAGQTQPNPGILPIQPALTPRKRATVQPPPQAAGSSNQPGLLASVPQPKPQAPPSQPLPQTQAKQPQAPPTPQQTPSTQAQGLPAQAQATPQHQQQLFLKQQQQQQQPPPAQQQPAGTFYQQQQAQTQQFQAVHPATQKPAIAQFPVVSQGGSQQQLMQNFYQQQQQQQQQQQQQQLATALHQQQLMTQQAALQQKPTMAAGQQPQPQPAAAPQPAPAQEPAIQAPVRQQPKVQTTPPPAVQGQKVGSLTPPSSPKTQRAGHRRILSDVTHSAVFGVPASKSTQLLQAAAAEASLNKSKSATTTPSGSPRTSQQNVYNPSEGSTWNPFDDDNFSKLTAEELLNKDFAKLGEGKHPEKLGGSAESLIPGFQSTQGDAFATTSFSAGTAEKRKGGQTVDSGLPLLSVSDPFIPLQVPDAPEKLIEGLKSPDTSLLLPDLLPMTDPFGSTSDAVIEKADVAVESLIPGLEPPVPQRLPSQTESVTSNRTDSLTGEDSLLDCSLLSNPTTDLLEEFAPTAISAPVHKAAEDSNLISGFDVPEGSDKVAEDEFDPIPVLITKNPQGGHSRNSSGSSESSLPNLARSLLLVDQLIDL

Biological target: AP2-associated protein kinase 1 (Homo sapiens, UniProt Q2M2I8)
Test: Inhibition of bacterially expressed GST-Xa-tagged human AAK1 using 5-FAM-labelled Aha-KEEQSQITSQVTGQIGWR-NH2 peptide as substrate incubated for 3 hrs in presence of ATP by electrophoretic analysis

IC50: 2.3 nM
Structure (SMILES): CC(C)C[C@](C)(N)COc1cnc(-c2ccnc(Cl)c2)cc1Cl
